In US20130137855A1 (CSL, published 2013):

Target: T1, Soluble human IL-3Rα (human, UniProt P26951 20-305, limits assumed)
T1 construct: The assay used 'soluble human IL-3Rα'; also called IL-3Rα chain; interleukin 3 receptor alpha chain
T1 sequence: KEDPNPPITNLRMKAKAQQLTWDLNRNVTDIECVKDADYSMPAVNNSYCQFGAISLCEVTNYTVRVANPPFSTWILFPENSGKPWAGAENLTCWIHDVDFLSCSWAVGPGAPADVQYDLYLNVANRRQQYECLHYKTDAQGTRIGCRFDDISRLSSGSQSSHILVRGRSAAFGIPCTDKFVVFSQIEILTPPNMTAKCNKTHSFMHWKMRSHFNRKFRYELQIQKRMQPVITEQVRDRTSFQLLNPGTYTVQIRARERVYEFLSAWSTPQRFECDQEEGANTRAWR
Assay: SPR (Biacore), mAb captured by anti-human Fc antibody, soluble human IL-3Rα injected, 25 °C
Experimental: To analyze full-length antibodies, surface plasmon resonance (Biacore) assays were performed in a capture format where a chemically immobilized anti human or anti mouse Fc specific antibody (Anti human Goat anti Human IgG (gamma) mouse adsorbed (Invitrogen, Cat No. H10500) or anti mouse Fc specific antibody (Jackson Immuno Research Labs inc. Cat No. 515-005-071) were chemically immobilized on a CM-5 sensor surface using standard amine coupling chemistry) and used to capture the mAb from solution. Soluble human IL-3Rα was then injected over captured antibody at various concentrations. Responses were subtracted from those from a reference flow cell in which antibody was not captured, but otherwise treated identically. The reference subtracted responses were then subtracted from the responses from a blank injection.
The final corrected responses were fitted using non-linear regression to a model describing 1:1 kinetics, including a term for mass transport limitation. The Rmax value was fitted locally, to account for slight deviations in the level of antibody captured. Association rate (ka), dissociation rate (kd) and equilibrium dissociation constant (KD) were determined.
Soluble IL-3Rα was injected at 0, 0.62, 1.25, 2.5, 5, 10, 20 and 40 nM, with 2.5 and 5 nM in duplicate

B1: CSL362 (IgG1) (antibody, V domains shown)
VH: EVQLVQSGAEVKKPGESLKISCKGSGYSFTDYYMKWARQMPGKGLEWMGDIIPSNGATFYNQKFKGQVTISADKSISTTYLQWSSLKASDTAMYYCARSHLLRASWFAYWGQGTMVTVSS
VL: DIVMTQSPDSLAVSLGERATINCESSQSLLNSGNQKNYLTWYQQKPGQPPKPLIYWASTRESGVPDRFSGSGSGTDFTLTISSLQAEDVAVYYCQNDYSYPYTFGQGTKLEIKR
notes: Human IgG1 format
  Kd: ~0.78 nM
